For the experiment, the target named is T1, p53:HDM2 interaction (Homo sapiens, UniProt Q00987).
T1 construct: expressed in transfected cells; host or cells: U2OS (human tumor cells), transient double transfection by Amaxa nucleofection
The experiment can be described thus: p53:HDM2 protein-protein interaction biosensor high content screening assay in U2OS cells. The experiment is classed as cell-based.

Amino acid sequences for entries named in this document (tags omitted). Chains listed by the source or under a name are the forms on record and can include a tag or linker.
UniProt Q00987, with tags, fused parts or gaps: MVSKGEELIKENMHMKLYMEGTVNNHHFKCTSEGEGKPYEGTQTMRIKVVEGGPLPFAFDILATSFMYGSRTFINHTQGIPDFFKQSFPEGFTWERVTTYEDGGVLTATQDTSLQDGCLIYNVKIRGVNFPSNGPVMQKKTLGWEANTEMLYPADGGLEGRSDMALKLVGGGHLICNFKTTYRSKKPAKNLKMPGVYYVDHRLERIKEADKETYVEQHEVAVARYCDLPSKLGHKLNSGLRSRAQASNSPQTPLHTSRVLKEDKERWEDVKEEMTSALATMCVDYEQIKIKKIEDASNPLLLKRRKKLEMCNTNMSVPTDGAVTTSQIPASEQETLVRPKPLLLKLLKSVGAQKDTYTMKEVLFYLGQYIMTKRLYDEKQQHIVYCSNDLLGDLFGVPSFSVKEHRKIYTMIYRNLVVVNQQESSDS

Entries after “also recorded” stand apart in the source; their conditions may differ.

Turning to `COc1ccc(C2=N[C@@H](c3ccc(Cl)cc3)[C@@H](c3ccc(Cl)cc3)N2C(=O)N2CCNC(=O)C2)c(OC(C)C)c1` [nutlin-3], where the note is “U2OS cells expressing two-component p53:HDM2 biosensor, nucleoli to cytoplasm, within minutes after treatment”, the “intracellular redistribution of the biosensor upon treatment (disruption of p53:HDM2 interaction)” value was “redistributed predominately into the cytoplasm; also recorded: re-partitioned into the cytoplasm; also recorded: re-partitions predominately to the cytoplasm”. Further, the “reversibility of drug-induced translocation of the biosensor” value (washout experiments) was “reversible”.
